In one assay the target is Nociceptin receptor (Homo sapiens, UniProt P41146). Kind of assay: Human Nociceptin/Orphanin FQ Peptide (hNOP) Receptor Binding Assay: The hNOP receptor binding assay was performed as homogeneous SPA-assay (scintillation proximity assay) using the assay buffer 50 mM TRIS-HCl. 10 mM MgCl2. 1 mM EDTA (pH 7.4). The final assay volume (250 μl/well) included 0.5 nM of [leucyl-3H]nociceptin as ligand (PerkinElmer Life Sciences. Inc. Boston. Mass. USA). and either test. Background: Scintillation proximity formats need no separation of bound from free tracer.

By UniProt entry, the sequences of proteins in these tests, tags left out. Where a name states a change or a piece, a line headed by the entry shows the natural chain unless it says otherwise.
UniProt P41146: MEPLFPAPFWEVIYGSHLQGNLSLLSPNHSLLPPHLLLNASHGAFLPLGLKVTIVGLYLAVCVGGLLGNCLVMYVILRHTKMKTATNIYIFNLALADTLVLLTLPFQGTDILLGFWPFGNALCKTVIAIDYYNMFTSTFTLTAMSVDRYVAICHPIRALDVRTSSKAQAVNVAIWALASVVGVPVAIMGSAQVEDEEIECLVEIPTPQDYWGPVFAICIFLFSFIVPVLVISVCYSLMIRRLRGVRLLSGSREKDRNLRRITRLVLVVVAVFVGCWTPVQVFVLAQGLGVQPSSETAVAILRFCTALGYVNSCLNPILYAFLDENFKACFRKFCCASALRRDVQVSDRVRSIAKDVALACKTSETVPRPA
UniProt P35372, whole entry, looked up: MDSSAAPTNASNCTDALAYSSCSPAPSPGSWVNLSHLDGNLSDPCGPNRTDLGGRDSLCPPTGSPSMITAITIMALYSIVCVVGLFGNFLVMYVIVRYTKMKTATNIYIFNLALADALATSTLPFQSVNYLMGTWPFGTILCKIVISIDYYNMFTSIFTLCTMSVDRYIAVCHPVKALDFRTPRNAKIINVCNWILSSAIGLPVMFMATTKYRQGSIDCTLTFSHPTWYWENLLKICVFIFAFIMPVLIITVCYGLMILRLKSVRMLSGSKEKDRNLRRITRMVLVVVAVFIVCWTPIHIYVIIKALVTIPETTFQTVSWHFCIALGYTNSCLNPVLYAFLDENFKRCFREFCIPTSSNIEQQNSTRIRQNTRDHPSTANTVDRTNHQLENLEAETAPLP

The next assay concerns the target Mu-type opioid receptor (Homo sapiens, UniProt P35372). Kind of assay: Human Mu-Opioid Peptide (hMOP) Receptor Binding Assay: The hMOP receptor binding assay was performed as homogeneous SPA-assay (scintillation proximity assay) using the assay buffer 50 mM TRIS-HCl (pH 7.4) supplemented with […] bovine serum albumin (Sigma-Aldrich Co. St. Louis. Mo.). The final assay volume (250 l/well) included 1 nM of [N-allyl-2.3-3H]naloxone as ligand (PerkinElmer Life Sc.

In general, Ki refers to a dissociation constant, usually derived from enzyme kinetics or from competition with a known ligand. High values mean lower affinity, low ones higher affinity. For `Cc1ncc(N2C[C@]3(CC[C@](c4ccccc4)(N(C)C)CC3)N(Cc3ccccn3)C2=O)cn1`, the inhibition constant (Ki) on Nociceptin receptor turned out to be 45 nM; at Mu-type opioid receptor, 180 nM.
Take `CN[C@]1(c2ccccc2)CC[C@]2(CC1)CN(c1cnc(C#N)nc1)C(=O)N2CCOC`: the inhibition constant (Ki) at Nociceptin receptor turned out to be 85.8 nM; on Mu-type opioid receptor, 705 nM.
As for `CN(C)[C@]1(c2ccccc2)CC[C@]2(CC1)CN(c1cnccn1)C(=O)N2CC1CCC1`, the figures for the Ki on Nociceptin receptor and at Mu-type opioid receptor were 14 nM and 250 nM, respectively.
For the compound `CN(C)[C@]1(c2ccccc2)CC[C@]2(CC1)CN(c1csc(-c3ccccc3)n1)C(=O)N2`, the Ki was 125 nM on Nociceptin receptor and 2250 nM at Mu-type opioid receptor.
The like results for `CN(C)[C@]1(c2ccccc2)CC[C@]2(CC1)CN(c1nnc(C(F)(F)F)s1)C(=O)N2` were, in that order, 14 nM and 4990 nM.
Turning to `CN(C)[C@]1(c2ccccc2)CC[C@]2(CC1)CN(c1ncncc1F)C(=O)N2`, the Ki at Nociceptin receptor is 105 nM; on Mu-type opioid receptor it was 3620 nM.
Turning to `CN(C)[C@]1(c2ccccc2)CC[C@]2(CC1)CN(c1cnc(-c3ccc4ncsc4c3)nc1)C(=O)N2`, the values for the Ki on Nociceptin receptor and at Mu-type opioid receptor were 8 nM and 4630 nM, respectively.
As to `CCN(C)[C@]1(c2ccccc2)CC[C@]2(CC1)CN(c1cnc(C#N)nc1)C(=O)N2CC1(C#N)CCC1`, the Ki on Nociceptin receptor was determined as 11.4 nM; at Mu-type opioid receptor, 320 nM.
The like results for `COC1(CCN2C(=O)N(c3ccccc3C(N)=O)C[C@]23CC[C@](c2ccccc2)(N(C)C)CC3)CCC1` were, in that order, 8 nM and 19 nM.
`CN(C)[C@]1(c2ccccc2)CC[C@]2(CC1)CN(c1ccc3nonc3c1)C(=O)N2`: the results for the Ki on Nociceptin receptor and at Mu-type opioid receptor were 15 nM and 3480 nM, respectively.
On to `CN(C)[C@]1(c2cccs2)CC[C@@]2(CC1)CN(c1cnc(C(F)(F)F)nc1)C(=O)N2`, for which the Ki came out at 11 nM on Nociceptin receptor and 5 nM at Mu-type opioid receptor.
Consider `CN(C)[C@]1(c2ccccc2)CC[C@]2(CC1)CN(c1cccc(N3CCCC3)c1)C(=O)N2CC1CCC1`, for which the inhibition constant (Ki) at Nociceptin receptor came out at 39 nM; at Mu-type opioid receptor, 1110 nM.
For the compound `CN(C)[C@]1(c2ccccc2)CC[C@]2(CC1)CN(c1cnc(-n3cc(C(F)(F)F)nn3)nc1)C(=O)N2`, the inhibition constant (Ki) at Nociceptin receptor amounted to 12 nM; on Mu-type opioid receptor it was 2580 nM.
For the compound `CN[C@]1(c2ccccc2)CC[C@]2(CC1)CN(c1cnc(C(F)(F)F)cc1C)C(=O)N2CC1CC1`, the figures for the Ki at Nociceptin receptor and at Mu-type opioid receptor were 12 nM and 1030 nM, respectively.
Turning to `CN(CCO)c1nc2cc(N3C[C@]4(CC[C@](c5ccccc5)(N(C)C)CC4)NC3=O)ccc2[nH]1`, the Ki worked out at 48 nM at Nociceptin receptor and 560 nM at Mu-type opioid receptor.
In the case of `CN[C@]1(c2ccccc2)CC[C@]2(CC1)CN(c1cnc(C(F)(F)F)nc1)C(=O)N2CC1COC1`, the Ki at Nociceptin receptor stood at 305 nM; at Mu-type opioid receptor it was 31 nM.
Consider `COCCCN1C(=O)N(c2ncc(C#N)cn2)C[C@]12CC[C@](c1ccccc1)(N(C)C)CC2`, for which the inhibitory constant (Ki) was determined as 11 nM on Nociceptin receptor and 1020 nM at Mu-type opioid receptor.
For the compound `Cc1cc(C(F)(F)F)ncc1N1C[C@]2(CC[C@](c3ccccc3)(N(C)C)CC2)N(CC2CC2)C1=O`, the Ki at Nociceptin receptor was determined as 5 nM; on Mu-type opioid receptor, 305 nM.
The like results for `CN(CCO)c1ncc(N2C[C@]3(CC[C@](c4cccs4)(N(C)C)CC3)NC2=O)cn1` were, in that order, 14 nM and 1510 nM.
For `CCCN1C(=O)N(c2cnc(C#N)nc2)C[C@]12CC[C@](c1ccccc1)(N(C)C)CC2` the same measures were 5.2 nM and 102 nM.
Regarding `COC(=O)c1ccccc1N1C[C@]2(CC[C@](c3ccccc3)(N(C)C)CC2)NC1=O`, the figures for the inhibition constant (Ki) on Nociceptin receptor and on Mu-type opioid receptor were 140 nM and 4270 nM, respectively.

Source of the values: ChEMBL document CHEMBL5728057, “3-((hetero-)aryl)-8-amino-2-oxo-1,3-diaza-spiro-[4.5]-decane derivatives” (2020).
